{"source": "patent US20210275547A1", "about": "“Methods of Modulating Activity of a Cyclic Dinucleotide (CDN) with a CDN Transporter-Modulating Agent” (THE REGENTS OF THE UNIVERSITY OF CALIFORNIA, priority 2018, published 2021)", "key": {"[1]": {"system": "THP-1 cells expressing an ISRE-driven tdTomato reporter", "assay": "ISRE-tdTomato reporter induction in THP-1 cells on stimulation", "type": "cell-based, human", "conditions": "synthetic CDN 1.7 μg/ml for 20 h", "text": "To identify genes encoding molecules involved in this process, a reporter system was created to detect STING activation in response to extracellular CDNs, in order to perform a genetic screen. The reporter was composed of an Interferon Stimulatory Response Element (ISRE) cassette driving the expression of the fluorescent protein tdTomato. The reporter system was expressed in the human monocytic cell line THP-1 to confirm that the tdTomato reporter was induced in response to stimulation with human interferon-beta (hIFNβ) or a synthetic CDN (FIG. 1A). Subsequently, THP-1 cells containing the reporter were transduced with a genome-wide library of guide RNAs (gRNAs), which suppress expression of target genes. The library targeted 20,000 genes within the human genome. The gRNA library-expressing THP-1 cells were stimulated with synthetic CDN, and the cells were subsequently sorted into two populations based on either low (hyporesponsive) or high (hyper-responsive) levels of tdTomato reporter expression. These populations were sequenced to reveal the RNA targets. As expected, gRNAs targeting components of the STING pathway, including IRF3 and STING itself, were enriched in the hyporesponsive cells and depleted in the hyper-responsive cells, corroborating the success of the screening procedure. Other “hits” in the screen were examined for their role in CDN transport."}, "[2]": {"molecular_target": "T1, SLC19A1 (Homo sapiens, UniProt P41440)", "T1 sequence (P41440 1-591)": "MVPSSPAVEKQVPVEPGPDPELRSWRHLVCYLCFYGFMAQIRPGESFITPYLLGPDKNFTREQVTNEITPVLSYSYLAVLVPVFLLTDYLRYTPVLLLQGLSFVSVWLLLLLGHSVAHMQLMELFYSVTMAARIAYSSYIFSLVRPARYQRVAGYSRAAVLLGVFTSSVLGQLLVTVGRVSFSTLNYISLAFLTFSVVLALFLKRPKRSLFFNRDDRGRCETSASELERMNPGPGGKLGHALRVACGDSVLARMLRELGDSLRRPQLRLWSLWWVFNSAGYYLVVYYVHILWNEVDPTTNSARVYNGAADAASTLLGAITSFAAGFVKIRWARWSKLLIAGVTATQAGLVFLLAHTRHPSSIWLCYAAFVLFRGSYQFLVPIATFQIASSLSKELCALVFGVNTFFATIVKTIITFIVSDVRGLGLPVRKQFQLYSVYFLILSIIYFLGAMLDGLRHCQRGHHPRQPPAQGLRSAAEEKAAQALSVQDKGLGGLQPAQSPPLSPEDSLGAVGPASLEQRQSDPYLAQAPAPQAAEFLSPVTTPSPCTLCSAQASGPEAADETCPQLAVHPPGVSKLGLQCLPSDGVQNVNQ", "assay": "Reporter response to CDNs in THP-1 cells with SLC19A1 knocked down or overexpressed", "conditions": "SLC19A1 knockdown vs control, synthetic CDN 1.7 μg/ml, hIFNβ 100 ng/ml, 20 h"}}, "data": [{"substance": "hIFNβ: human interferon-beta used as control stimulant", "values": [{"measurement": "tdTomato reporter expression upon stimulation", "setting": "[1]", "result": "induced"}, {"measurement": "effect of knocking down SLC19A1 expression on the response to the stimulant", "setting": "[2]", "result": "no effect"}]}]}
